This data set is described as follows: Oral pharmacokinetics in dogs (Example 3). Particulars: oral capsules. In kind it is in vivo.

Regarding “tris (8-quinolinolato) gallium (III) [unmodified crystalline drug]”, the “CMax (maximum concentration) of GaQ3 in the plasma” value (10 mg/kg GaQ3, ICP-MS) is given as 16.1 ng/mL. Moreover, the “AUC (area under the curve) of GaQ3 in the plasma” value (10 mg/kg GaQ3, plasma to 72 hours) was found to be 213.8 ng·h/mL.

Source of the values: patent US10933021B2, “Compositions of gallium (III) complexes for oral administration” (Altum Pharmaceuticals Inc., priority 2017, dated 2021).
